Experimental data as given in patent US10072299B2, “Antibodies against epidermal growth factor receptor (EGFR) and uses thereof” (Merrimack Pharmaceuticals, Inc., priority 2011, dated 2018).

Columns and labels:
Format in all cases: cell-based, human
[1] = test system: total EGFR (tEGFR) in DU-145 cells; experiment: EGF receptor down-regulation in DU-145 cells (immunoblot); details: DU-145 cells, 2, 6 or 24 hours; 50 nM (IgG trio, cetuximab) or 100 nM (Fab trio)
Protocol: To prepare cell lysates, H1975 cells are trypsinized, harvested, counted, and plated in 6 well dishes at 1×10^6 cells per well and incubated overnight to allow attachment to the culture plate. […] Cells are lysed with 100 μl of Mammalian Protein Extraction Reagent (Pierce, cat#78505). Protein extraction reagent is supplemented with PhosSTOP (Roche, cat#04906837001) and Protease Inhibitor Cocktail tablets (Roche, cat#04693124001). […] Following transfer of proteins to a nitrocellulose membrane, nonspecific sites are blocked by incubation with Odyssey blocking buffer (LI-COR, cat#927-400-00) for one hour at room temperature. Membranes are incubated as required with mouse monoclonal anti-EGFR (1F4—labeling tEGFR; Cell Signaling, cat#2239); rabbit monoclonal anti-phospho44/42 MAPK (Erk1/2, Thr202/Tyr204, D13.14.4E—labeling pERK; Cell Signaling, cat#4370); rabbit monoclonal anti-phosphoAKT (Ser473, 193H12; Cell Signaling, cat#4058); rabbit monoclonal phospho-c-Jun (Ser73, D47G9—labeling p-c-Jun; Cell Signaling, cat#3270) and rabbit anti-PCNA (FL-261) (Santa Cruz Biotechnology, cat# sc-7907). […] Bands are detected using LI-COR Odyssey Infrared Imaging System and analyzed using Odyssey software. […]

H1975 cells = experiment: CellTiter-Glo cell viability assay, H1975; details: 1% FCS, CTG
Protocol: (§1) Inhibition of cellular proliferation of cells expressing EGFR is examined in vitro as follows: HCC827 and H1975 cancer cells are seeded in 96 well tissue culture plates at 5,000 cells per well and grown in RPMI-1640 medium supplemented with antibiotics, 2 mM L-glutamine and 10% fetal calf serum (FCS) for 24 hours at 37° C. and 5% carbon dioxide. […] Cell viability is measured using the CellTiter-Glo® (CTG) Luminescent Cell Viability Assay (Promega Corporation, cat# G7572) according to manufacturer's instructions. The CTG assay measures the number of viable cells in culture based upon quantitation of ATP present, which is an indicator of metabolically active cells. Control treatments include cells treated with RPMI-1640 with antibiotics, 2 mM L-glutamine, 1% FCS in the presence (referred to as “+EGF” or “+AREG”) or absence (referred to as “−EGF” or “−AREG”) of 50 ng/mL EGF or 200 ng/ml AREG.
(§2) Inhibition of tumor cell proliferation in vitro was analyzed by the methods described above or minor variations thereof. […] FIGS. 9A-9D show inhibition of cell proliferation using CellTiter-Glo® (CTG) Luminescent Cell Viability Assay (Promega Corporation) that measures the number of viable cells in culture based upon quantitation of ATP present, which is an indicator of metabolically active cells. […]

HCC827 cells = experiment: CellTiter-Glo cell viability assay, HCC827; details: 1% FCS, CTG
Protocol: as §1, §2

cetuximab: commercially available pharmaceutical anti-EGFR antibody (Bristol-Myers Squibb)
down-regulation of EGFR [1]: did not lead to observable down-regulation of EGFR | inhibition of growth of H1975 cells, EGF ligand (H1975 cells; 50 ng/mL EGF): not | inhibition of growth of H1975 cells, AREG ligand (H1975 cells; 200 ng/ml AREG): potent inhibition of growth | inhibition of growth of HCC827 cells, EGF ligand (HCC827 cells; 50 ng/mL EGF): not | inhibition of growth of HCC827 cells, AREG ligand (HCC827 cells; 200 ng/ml AREG): potent inhibition of growth
